Measured values taken from patent publication US20260306502A1, “MITOCHONDRIAL UNCOUPLERS FOR TREATMENT OF METABOLIC DISEASES AND CANCER” (Mito Biopharma, LLC, priority 2022, published 2026).

Columns and labels:
[1] = test system: C57Bl6 mice; assay: Determination of acute toxicity; settings: acute toxicity LD50 over minimum efficacious dosage
[2] = test system: CD-1 mice; assay: Short-term (10-day) escalating toxicology study in CD-1 mice; format: in vivo, mouse; settings: 10-day study, using different parameters (dosage, Cmax, AUC)
Experimental: (§1) A 10-day toxicology study in CD-1 mice was performed to determine NOAEL of Compound 64, where animals (n=5) were administered once daily for 10 consecutive days. Clinical signs, body weights, food consumptions, rectal temperature, hematology, serum chemistry, plasma exposure, necropsies, tissue histopathology, were examined.
as §1, with “25,” for “64,”
10-day escalating toxicology study in CD-1 mice: Different doses of compounds (e.g. Compound 25 and Compound 64) were given to male CD1 mice once daily via oral gavage, for 10 consecutive days. […] Clinical signs were recorded twice daily. Body weight and food consumption were recorded once daily. Rectal temperature was recorded once every two days for a total of 5 times throughout the study. […] Hematology, serum chemistry, plasma exposure, and tissue distribution were evaluated post 10th dosing in the TK satellite animals. […] Based on the outcomes of the toxicology parameters, NOAEL (no-observable-adverse-effect-level) and MTD (maximal tolerable dose) were determined.

## COCCOCc1cc(C(F)(F)F)cc2sc(NC(=O)c3cc(Cl)cc(CN4C[C@@H](C)O[C@@H](C)C4)c3O)nc12 [Compound 64, 5-chloro-3-((cis-2,6-dimethylmorpholino)methyl)-2-hydroxy-N-(4-((2-methoxyethoxy)methyl)-6-(trifluoromethyl)benzo[d]thiazol-2-yl)benzamide]
[1]
  LD50/MED ratio: over 400

## COCCN(CCOC)Cc1cc(Cl)cc(C(=O)Nc2nc3ccc(C(F)(F)F)cc3s2)c1O [Compound 25, 3-((bis(2-methoxyethyl)amino)methyl)-5-chloro-2-hydroxy-N-(6-(trifluoromethyl)benzo[d]thiazol-2-yl)benzamide]
[1]
  LD50/MED ratio: > 200
[2]
  NOAEL/MED ratio: over 19
